Reference: patent US7785581B2, “Composition and method for reducing feces toxins and treating digestive disorders” (Qingdao East Sea Pharmaceuticals Ltd., priority 2006, dated 2010)

System: IBS patients
Test: Treatment of IBS with live Bifidobacterium tablets (Example 8)
Conditions: 14 to 21 days

Bifidobacterium
side effects during treatment: No side effects
